According to patent publication US20230271956A1, “AMIDE DERIVATIVES” (Merck Patent GmbH, priority 2020, published 2023):
Only a part of the results on these compounds is given; other tests are left out.

The chains behind the UniProt entries cited, without tags or fusion partners.
UniProt Q9NR19, whole entry: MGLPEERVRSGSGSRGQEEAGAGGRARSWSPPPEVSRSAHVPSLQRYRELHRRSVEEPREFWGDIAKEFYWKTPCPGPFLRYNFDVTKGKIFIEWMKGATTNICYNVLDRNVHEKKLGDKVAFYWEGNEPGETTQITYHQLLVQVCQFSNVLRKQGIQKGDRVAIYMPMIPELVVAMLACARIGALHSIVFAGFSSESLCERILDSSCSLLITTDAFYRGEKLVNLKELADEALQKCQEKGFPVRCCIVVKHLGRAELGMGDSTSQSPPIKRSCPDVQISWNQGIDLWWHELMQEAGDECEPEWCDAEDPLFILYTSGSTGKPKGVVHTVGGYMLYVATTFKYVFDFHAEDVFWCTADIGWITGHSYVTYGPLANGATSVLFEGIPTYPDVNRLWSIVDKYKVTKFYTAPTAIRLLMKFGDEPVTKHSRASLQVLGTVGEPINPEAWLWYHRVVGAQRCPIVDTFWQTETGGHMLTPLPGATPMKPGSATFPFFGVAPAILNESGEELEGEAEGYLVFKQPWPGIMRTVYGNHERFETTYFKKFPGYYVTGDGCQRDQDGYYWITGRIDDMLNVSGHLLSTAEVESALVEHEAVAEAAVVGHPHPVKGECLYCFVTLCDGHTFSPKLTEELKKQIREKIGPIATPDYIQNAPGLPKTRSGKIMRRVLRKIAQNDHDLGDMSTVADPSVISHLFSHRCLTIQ

Biological target: human rec ACSS2 (Homo sapiens, UniProt Q9NR19)
Experiment: Biochemical activity ACSS2 assay (AMP-Glo)
Settings: read-out: IC50 biochemical; human recombinant ACSS2, AMP-Glo, 180 min at 37° C.
Procedure: The biochemical activity assay for ACSS2 is based on the detection of released AMP by AMP-Glo ™ Assay kit (Promega, Madison). The assay is run in three steps: the enzymatic reaction in which human rec ACSS2 activates acetate with ATP and Coenzyme A as cosubstrates to acetyI-coA thereby releasing AMP and the detection reaction of AMP by AMP Glo assay in which after the destruction of the residual ATP with AMP Glo reagent 1 produced AMP is converted to ATP that is measured in a luciferase assay system (detection reagent). The ACSS2 activity correlates with the detected luminescence signal.
The assay was performed in Perkin Elmer 384well white Proxiplates in a total volume of 8 µl.
1 nM (fc) C-term myc tagged ACSS2 (human, recombinant, Origene, Rockville, US) and a mixture of 100 µM (fc) ATP, 100 µM (fc) Coenzyme A and 500 µM (fc) sodium acetate were incubated in a total volume of 5 µl (50 mM Hepes, 1 mM Mg-chloride, 150 mM NaCl, 1 mM DTT, 0.01 % (w/v) BSA, 0.3 % DMSO, pH 7.5) in the absence or presence of the test compound (10 dilution concentrations, start conc 30 µM) for 180 min at 37° C. […] The luminescence signal was measured with an Envision multimode reader (Perkin Elmer LAS Germany GmbH) at 700 nm in luminescence mode. […] The inhibitory values (IC50) were determined using the program Assay Analyzer® from GeneData.

CCn1cnc(NC(=O)c2cc3c(nc2OC)nc(C(O)(c2ccccc2)c2ccccc2)n3CCN(C)C)n1
IC50: 1 to 10 nM
